Results from PubChem BioAssay (NCI).
This is a selection; strong and weak results do not stand in their true shares. Some salts or complexes appear as unconnected parts, following the source record. Some compounds were tested as several samples or in several runs, with calls that do not always agree. Activity calls are given as the source filed them. Cut-off read from the data, not from the text of the source: active = growth inhibition above about 70%; inactive = the rest.

How the values were obtained:
[1] = NCI Yeast Anticancer Drug Screen. Data for the rad50 strain (AID 155);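 note: 0% = growth of vehicle-only cultures of the same strain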; details: S. cerevisiae rad50 strain growth inhibition, stronger effect = higher value
[2] = NCI Yeast Anticancer Drug Screen. Data for the mec2-1 strain (AID 157); details: S. cerevisiae mec2-1 strain, stronger effect = higher value
[3] = NCI Yeast Anticancer Drug Screen. Data for the sgs1 mgt1 strain (AID 161);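 note: 0% = growth of cultures given vehicle only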; details: S. cerevisiae sgs1 mgt1 strain, stronger effect = higher value
[4] = NCI Yeast Anticancer Drug Screen. Data for the cln2 rad14 strain (AID 165);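 note: 0% = growth equal to vehicle treated cultures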; details: S. cerevisiae cln2 rad14 strain, stronger effect = higher value
[5] = NCI Yeast Anticancer Drug Screen. Data for the bub3 strain (AID 167); details: S. cerevisiae bub3 mutant strain, stronger effect = higher value
[6] = NCI Yeast Anticancer Drug Screen. Data for the mlh1 rad18 strain (AID 175); details: S. cerevisiae mlh1 rad18 strain growth inhibition, stronger effect = higher value
[7] = at 5.0 µM (retest, dose inferred, filed as 0.5)
[8] = at 50.0 µM (retest, dose inferred, filed as 5.0)

Structure (SMILES) | growth inhibition [1, 7] | growth inhibition [1, 8] | growth inhibition ([1]; at 50.0 µM) | growth inhibition [2, 7] | growth inhibition [2, 8] | growth inhibition ([2]; at 50.0 µM) | growth inhibition [3, 7] | growth inhibition [3, 8] | growth inhibition ([3]; at 50.0 µM) | growth inhibition [4, 7] | growth inhibition [4, 8] | growth inhibition ([4]; at 50.0 µM) | growth inhibition [5, 7] | growth inhibition [5, 8] | growth inhibition ([5]; at 50.0 µM) | growth inhibition [6, 7] | growth inhibition [6, 8] | growth inhibition ([6]; at 50.0 µM)
O=[N+]([O-])c1cc([N+](=O)[O-])c(-c2ccccc2)c([N+](=O)[O-])c1 | inactive: 6% | active: 99% | active: 99.4% | inactive: 7% | active: 99% | active: 99.3% | inactive: 7% | active: 99% | active: 99.5% | inactive: -1% | active: 99% | active: 97.5% | inactive: 1% | active: 99% | active: 99.1% | inactive: 12% | active: 99% | active: 99.3%
C=CCc1cccc2ccccc12.O=[N+]([O-])c1cc([N+](=O)[O-])cc([N+](=O)[O-])c1 | inactive: 25% | active: 99% | active: 99.6% | inactive: 14% | active: 100% | active: 99.5% | inactive: 37% | active: 100% | active: 99.5% | inactive: 6% | active: 99% | active: 99% | inactive: 33% | active: 99% | active: 99.3% | inactive: 17% | active: 99% | active: 99.2%
C[S+]1C2CCCCCCC21.O=[N+]([O-])c1cc([N+](=O)[O-])c(S(=O)(=O)[O-])c([N+](=O)[O-])c1 | inactive: 6% | inactive: 23% | inactive: 53% | inactive: 22% | inactive: 43% | inactive: 26.4% | inactive: 29% | inactive: 61% | inactive: 66.7% | – | inactive: 24% | inactive: 45.1% | inactive: 3% | inactive: 25% | inactive: 33.2% | inactive: 30% | inactive: 59% | inactive: 34%
CC12CCC3(C)OCC(COC(=O)C(O)(c4ccccc4)C4CCCCC4)(CO1)N23 (stereo not drawn) | inactive: 7% | inactive: 69% | active: 92.6% | inactive: -2% | inactive: 7% | active: 95.2% | inactive: 0% | inactive: 47% | active: 82.6% | inactive: 0% | inactive: 8% | active: 91.3% | inactive: 1% | inactive: 33% | active: 98.8% | inactive: -1% | inactive: 21% | active: 90.4%
Cc1ccc2ccc3cc4ccccc4cc3c2c1.O=C1c2cc([N+](=O)[O-])ccc2-c2c1cc([N+](=O)[O-])cc2[N+](=O)[O-] | – | – | inactive: -1% | – | – | inactive: 0.35% | – | – | inactive: 5.15% | – | – | inactive: -7.65% | – | – | inactive: -4.45% | – | – | inactive: 25.9%
C(c1nnn[n-]1)c1nnn[n-]1.[Au+].[Au+].c1ccc([PH+](c2ccccc2)c2ccccc2)cc1.c1ccc([PH+](c2ccccc2)c2ccccc2)cc1 | inactive: 27% | – | active: 84% | active: 81% | – | active: 86.1% | inactive: 58% | active: 99% | active: 88.3% | inactive: 33% | – | active: 90.2% | inactive: 36% | active: 99% | active: 89.7% | inactive: 43% | active: 99% | active: 91.8%
CCOC(=O)CN(CCCl)CCCl.O=[N+]([O-])c1cc([N+](=O)[O-])c(S(=O)(=O)O)c([N+](=O)[O-])c1 | inactive: -1% | inactive: 22% | inactive: 38.6% | inactive: 6% | inactive: 31% | inactive: 44.5% | inactive: 15% | inactive: 58% | active: 79.2% | inactive: -1% | inactive: 19% | active: 71.2% | inactive: 5% | inactive: 44% | inactive: 13.9% | inactive: 13% | inactive: 41% | inactive: 40.9%
CCN(CC)CCOC(=O)C(O)(c1ccc(C(C)C)cc1)c1ccc(C(C)C)cc1 | inactive: -2% | inactive: 9% | active: 93.5% | inactive: 14% | inactive: 29% | active: 96.2% | inactive: -5% | inactive: 46% | active: 98.6% | inactive: -6% | inactive: -6% | inactive: 24% | inactive: -5% | inactive: 29% | active: 97.8% | inactive: 16% | active: 78% | active: 98.9%
O=[N+]([O-])c1cc([N+](=O)[O-])c(Nc2ccc(Cl)cc2)c([N+](=O)[O-])c1 | active: 78% | active: 89% | active: 81.3% | active: 80% | active: 90% | active: 86.3% | inactive: 58% | active: 97% | – | inactive: 59% | active: 96% | – | active: 85% | active: 98% | – | inactive: 34% | active: 94% | active: 83%
